Several values for one entry are separate records, joined by “and”; a condition that tells them apart may be missing. Identical values can stand only once. The list shows a part of the results, in another mix than the full data. Results filed as inconclusive are left out. Some compounds were tested as several samples or in several runs, with calls that do not always agree. Activity calls are given as the source filed them. Unless noted, calls follow the shape of the dose curve; as a rule, active = well fitted curve in the direction sought with a large enough effect in the repeat runs; inconclusive = weak or mixed curves; inactive = no such curve, though single readings can be large; an effect the other way counts as inactive or inconclusive.
Assays:
[1] = A CellTox Green Cytotoxicity Assay to monitor cytotoxicity in HepG2 cells - 0 hour (AID 1224882); also: nearly all actives have a fitted effect of over 35% in size; also: potency is read from the fitted curve at half-maximal effect; as to Cytotoxicity: % is scaled to controls: 0 for no effect and ±100 for the full control effect
Method in brief: (§1)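 HepG2 cells, 600/well, preincubated 5 h with CellTox Green dye, then exposed to Tox21 compounds in DMSO at 37 C for up to 40 h. Dead-cell DNA fluorescence read at the indicated time point.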

The chains behind the UniProt entries cited, without tags or fusion partners.
UniProt P03372, whole entry: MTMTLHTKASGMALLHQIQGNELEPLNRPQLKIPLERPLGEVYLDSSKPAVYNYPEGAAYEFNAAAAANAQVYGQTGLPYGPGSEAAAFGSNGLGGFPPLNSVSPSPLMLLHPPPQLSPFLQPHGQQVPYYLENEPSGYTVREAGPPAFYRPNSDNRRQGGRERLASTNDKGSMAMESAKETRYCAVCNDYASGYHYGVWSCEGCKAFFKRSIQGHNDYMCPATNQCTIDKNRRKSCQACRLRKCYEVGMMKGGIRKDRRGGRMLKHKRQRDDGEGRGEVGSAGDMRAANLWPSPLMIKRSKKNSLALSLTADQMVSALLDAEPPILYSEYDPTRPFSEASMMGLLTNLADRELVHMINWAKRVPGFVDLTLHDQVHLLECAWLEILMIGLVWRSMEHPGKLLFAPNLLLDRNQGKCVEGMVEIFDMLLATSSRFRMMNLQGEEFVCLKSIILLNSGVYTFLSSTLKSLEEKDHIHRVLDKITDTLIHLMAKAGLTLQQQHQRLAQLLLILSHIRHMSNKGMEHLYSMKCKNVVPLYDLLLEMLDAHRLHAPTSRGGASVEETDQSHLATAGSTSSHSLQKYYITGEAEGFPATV
UniProt Q92731, whole entry: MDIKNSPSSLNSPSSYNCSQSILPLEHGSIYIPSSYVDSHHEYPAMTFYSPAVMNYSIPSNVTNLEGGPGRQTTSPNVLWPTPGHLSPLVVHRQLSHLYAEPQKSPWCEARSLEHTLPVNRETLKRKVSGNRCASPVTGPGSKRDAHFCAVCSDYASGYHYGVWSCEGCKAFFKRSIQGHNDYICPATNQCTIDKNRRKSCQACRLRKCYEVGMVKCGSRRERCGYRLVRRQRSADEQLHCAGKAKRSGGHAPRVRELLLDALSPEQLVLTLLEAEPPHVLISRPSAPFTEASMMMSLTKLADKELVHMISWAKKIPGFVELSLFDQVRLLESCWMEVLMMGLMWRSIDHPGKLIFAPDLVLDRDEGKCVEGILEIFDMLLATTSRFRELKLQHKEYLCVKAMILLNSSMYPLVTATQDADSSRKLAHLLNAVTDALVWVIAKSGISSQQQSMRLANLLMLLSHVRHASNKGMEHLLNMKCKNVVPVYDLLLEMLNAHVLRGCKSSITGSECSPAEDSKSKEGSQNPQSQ
UniProt P10275, whole entry: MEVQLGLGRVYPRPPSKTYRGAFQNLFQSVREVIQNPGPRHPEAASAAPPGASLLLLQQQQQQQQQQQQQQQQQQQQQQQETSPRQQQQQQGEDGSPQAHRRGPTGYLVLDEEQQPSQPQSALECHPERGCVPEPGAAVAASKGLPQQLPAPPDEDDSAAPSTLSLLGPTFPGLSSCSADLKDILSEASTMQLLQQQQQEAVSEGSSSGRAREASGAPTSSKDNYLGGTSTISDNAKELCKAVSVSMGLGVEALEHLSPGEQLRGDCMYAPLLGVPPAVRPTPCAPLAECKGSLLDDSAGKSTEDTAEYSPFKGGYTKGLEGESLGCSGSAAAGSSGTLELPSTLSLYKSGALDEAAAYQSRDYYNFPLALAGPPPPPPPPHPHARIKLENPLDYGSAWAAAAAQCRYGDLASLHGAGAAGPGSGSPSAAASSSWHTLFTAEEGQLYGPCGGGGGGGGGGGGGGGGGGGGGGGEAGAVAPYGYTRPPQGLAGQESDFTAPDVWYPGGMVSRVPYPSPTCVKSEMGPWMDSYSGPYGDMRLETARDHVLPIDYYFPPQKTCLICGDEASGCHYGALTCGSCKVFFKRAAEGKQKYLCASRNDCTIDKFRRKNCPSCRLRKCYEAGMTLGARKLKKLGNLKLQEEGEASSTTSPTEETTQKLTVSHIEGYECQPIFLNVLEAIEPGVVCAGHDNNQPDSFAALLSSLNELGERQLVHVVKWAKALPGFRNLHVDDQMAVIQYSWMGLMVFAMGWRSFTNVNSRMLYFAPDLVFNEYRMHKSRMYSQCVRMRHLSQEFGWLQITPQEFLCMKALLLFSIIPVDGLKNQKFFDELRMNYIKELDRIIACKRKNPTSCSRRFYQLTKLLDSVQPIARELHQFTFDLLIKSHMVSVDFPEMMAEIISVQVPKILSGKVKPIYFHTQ

[2] = A CellTox Green Cytotoxicity Assay to monitor cytotoxicity in HepG2 cells - 32 hour (AID 1224883); also: nearly all actives have a fitted effect of over 50% in size; also: potency is read from the fitted curve at half-maximal effect
Method in brief: as §1

[3] = A CellTox Green Cytotoxicity Assay to monitor cytotoxicity in HEK293 cells - 8 hour (AID 1224884); also: % is scaled to controls: 0 for no effect and ±100 for the full control effect; nearly all actives have a fitted effect of over 35% in size
Method in brief: (§2)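 HEK293 cells, 600/well, were preincubated 5 hours and then exposed to compounds at 37 C for up to 40 hours. A cell-impermeant cyanine dye staining dead-cell DNA was read by fluorescence at 0, 8, 16, 24, 32 and 40 h time points.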

[4] = qHTS RealTime-Glo MT Cell Viability Assay in HepG2 cells - 16 hour (AID 1224885); details: RealTime-Glo luminescence; at 76.8 µM (top of the series) unless noted; also: % is scaled to controls: 0 for no effect and ±100 for the full control effect; nearly all actives have a fitted effect of over 50% in size
Method in brief: (§3)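 Compound treatment began 5 h after plating HepG2 cells (600/well) with NanoLuc luciferase and prosubstrate. Plates stayed at 37 C for 40 h; luminescence was captured at six time points, 0 h through 40 h.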

[5] = qHTS RealTime-Glo MT Cell Viability Assay in HEK293 cells - 8 hour (AID 1224887); details: RealTime-Glo luminescence; at 76.8 µM (top of the series) unless noted; also: top concentration of the series differs between compounds; % is scaled to controls: 0 for no effect and ±100 for the full control effect; nearly all actives have a fitted effect of over 50% in size
Method in brief: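 600 cells/well were plated with the nonlytic NanoLuc/prosubstrate reagent, pre-incubated 5 h, then given 23 nL of compound in DMSO. Incubation at 37 C for 40 h, with luminescence from viable-cell-reduced substrate read repeatedly from 0 h.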

[6] = A CellTox Green Cytotoxicity Assay to monitor cytotoxicity in HEK293 cells - 16 hour (AID 1224888); also: % is scaled to controls: 0 for no effect and ±100 for the full control effect; nearly all actives have a fitted effect of over 35% in size
Method in brief: as §2

[7] = qHTS RealTime-Glo MT Cell Viability Assay in HepG2 cells - 0 hour (AID 1224889); details: RealTime-Glo luminescence; at 76.8 µM (top of the series) unless noted; also: % is scaled to controls: 0 for no effect and ±100 for the full control effect; nearly all actives have a fitted effect of over 50% in size
Method in brief: as §3

[8] = A CellTox Green Cytotoxicity Assay to monitor cytotoxicity in HepG2 cells - 8 hour (AID 1224890); also: % is scaled to controls: 0 for no effect and ±100 for the full control effect; nearly all actives have a fitted effect of over 45% in size
Method in brief: as §1

[9] = qHTS assay to identify small molecule antagonists of the estrogen receptor alpha (ER-alpha) signaling pathway using the BG1 cell line in the presence of 0.1 nM 17-beta-estradiol - cell viability counter screen (AID 1259241); also: % is scaled to controls: 0 for no effect and ±100 for the full control effect; nearly all actives have a fitted effect of over 40% in size
Method in brief: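 Following 5 days in phenol red-free medium with charcoal-stripped serum, VM7Luc4E2 cells received test compounds alongside 0.1 nM 17beta-estradiol (final) at 37C for 22 hr. Live cells were then quantified via protease-substrate fluorescence.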

[10] = qHTS assay to identify small molecule antagonists of the androgen receptor (AR) signaling pathway using the MDA cell line in the presence of 0.5 nM R1881 - cell viability counter screen (AID 1259242); details: MDA-kb2 viability, CellTiter-Fluor protease fluorescence, 16 h; also: % is scaled to controls: 0 for no effect and ±100 for the full control effect; nearly all actives have a fitted effect of over 45% in size
Method in brief: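 MDA-kb2 cells (MMTV-luciferase, AR/GR responsive) were treated with compounds plus 0.5 nM R1881 (final) for 16 hr at 37C, 0% CO2. Viability was then read in the same wells as live-cell protease fluorescence (CellTiter-Fluor, 30 min).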

[11] = target: Estrogen receptor (Homo sapiens) (UniProt P03372); assay: qHTS assay to identify small molecule antagonists of the estrogen receptor alpha (ER-alpha) signaling pathway using the BG1 cell line in the presence of 0.1 nM 17-beta-estradiol (AID 1259244); details: VM7Luc4E2 (BG1) ERE-luciferase, antagonist mode, 0.1 nM E2, 22 h; at 92.4 µM (top of the series) unless noted
[12] = qHTS assay to identify small molecule HDAC inhibitors (AID 1259364); also: nearly all actives have a fitted effect of over 45% in size; also: potency is read from the fitted curve at half-maximal effect; as to activity change, negative = inhibition: top concentration of the series differs between compounds; % is scaled to controls: 0 for no effect and ±100 for the full control effect
Method in brief: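 Wild-type HCT-116 cells, plated overnight at 37 C, exposed to compounds 2 hr at 37 C; luminogenic HDAC-Glo substrate then added 30 min at room temperature. Luminescence reports relative endogenous class I/II HDAC activity.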

[13] = qHTS assay to identify small molecule agonists of the sonic hedgehog signaling (Shh) pathway - cell viability counter screen (AID 1259366)
Method in brief: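 Compounds in DMSO were pin-transferred onto 3T3 Gli1-Luc cells that had settled 4hr; plates then stood 24hr at 37C and 5% CO2. One hour before the end, CellTiter-Fluor was added and fluorescence recorded.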

[14] = qHTS assay to identify small molecule antagonists of the sonic hedgehog signaling (Shh) pathway - cell viability counter screen (AID 1259367); also: % is scaled to controls: 0 for no effect and ±100 for the full control effect; nearly all actives have a fitted effect of over 55% in size
Method in brief: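 Seed 3T3 Gli1-Luc cells at 2,000 per well; incubate 4 hr; add compound in DMSO, then conditioned medium; incubate at 37C with 5% CO2; add CellTiter-Fluor after 23 hr; read fluorescence 1 hr later.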

[15] = qHTS assay to identify small molecule agonists of the sonic hedgehog signaling (Shh) pathway (AID 1259368; calls by dose curve;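 also: NIH/3T3-derived 3T3Gli1-Luc cells carrying a stable Gli1-driven firefly luciferase reporter; % is scaled to controls: 0 for no effect and ±100 for the full control effect; nearly all actives have a fitted effect of over 15% in size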); details: NIH/3T3 Gli1-Luc reporter, luciferase, 24 h, stronger effect = higher value; at 92.4 µM (top of the series) unless noted
Method in brief: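 NIH/3T3-derived 3T3Gli1-Luc cells with stably integrated Gli1-driven firefly luciferase, 2,000 cells/well, compounds added after 4 hr. Incubated 24 hr at 37C, 5% CO2; luminescence read after 30 min with luciferase reagent at room temperature.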

[16] = qHTS assay to identify small molecule antagonists of the sonic hedgehog signaling (Shh) pathway (AID 1259369; calls by dose curve; also: % is scaled to controls: 0 for no effect and ±100 for the full control effect; nearly all actives have a fitted effect of over 45% in size)
Method in brief: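 NIH/3T3-derived Gli1-Luc reporter cells plated 4 h, dosed with compound, then stimulated with conditioned medium for 24 h at 37 C. Firefly luciferase luminescence read after 30 min with detection reagent at room temperature.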

[17] = target: Estrogen receptor beta (Homo sapiens) (UniProt Q92731); assay: qHTS assay to identify small molecule agonists of the estrogen receptor beta (ER-beta) signaling pathway (AID 1259377; active = well fitted activation curve with a large enough effect in the signal ratio in the repeat runs, not every such curve was filed as active; the % refers to the signal ratio; also: % is scaled to controls: 0 for no effect and ±100 for the full control effect); details: ER-beta-UAS-bla HEK293T, beta-lactamase FRET ratio, 16 h; at 92.4 µM (top of the series) unless noted
[18] = target: Estrogen receptor beta (Homo sapiens) (UniProt Q92731); assay: qHTS assay to identify small molecule antagonists of the estrogen receptor beta (ER-beta) signaling pathway (AID 1259378; active = well fitted inhibition curve with a large enough effect in the signal ratio in the repeat runs, not every such curve was filed as active; the % refers to the signal ratio; also: % is scaled to controls: 0 for no effect and ±100 for the full control effect); details: ER-beta-UAS-bla HEK293T, beta-lactamase FRET ratio, 16 h; at 92.4 µM (top of the series) unless noted
Method in brief: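 ER-beta-UAS-bla HEK293T cells in 2% charcoal-stripped FBS medium treated with compound plus 1nM final 17-beta-estradiol for 16 hr at 37C. Beta-lactamase reporter read by FRET substrate fluorescence after 2 hours at room temperature.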

[19] = qHTS assay to identify small molecule HDAC inhibitors - cell viability counter screen (AID 1259365); details: HCT-116 viability, CellTiter-Glo ATP luminescence, 2 h; at 92.4 µM (top of the series) unless noted
Method in brief: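 HCT-116 wild-type, overnight attachment; 2hr drug exposure, 37C; CellTiter-Glo luminescent ATP readout after 30min RT.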

[20] = target: Androgen receptor (Homo sapiens) (UniProt P10275); assay: qHTS assay to identify small molecule antagonists of the androgen receptor (AR) signaling pathway using the MDA cell line in the presence of 0.5 nM R1881 (AID 1259243)

COP(C)(=O)OC
inactive: Potency [1] | Potency [2] | Potency [3] | activity change, negative = cytotoxic [4] -1.09% and -3.3% | activity change, negative = cytotoxicity [5] 4.41% and 0.0757% | Potency [6] | activity change, negative = cytotoxicity [7] 2.11% and -8.79% | Potency [8] | Potency [9] | viability change, negative = cytotoxic ([10]; at 92.4 µM (top of the series)) 1.49% and -2.71% | activity change, negative = inhibition [11] -0.167% and 0.32% | Potency [12] | Potency [13] | Potency [14] | activity change [15] -0.471% and 0.0744% | Potency [16] | activation [17] 0.169% and 0.439% | activity, negative = inhibition [18] 17.6% and 13.4%

COc1ccc([N+](=O)[O-])cc1[N+](=O)[O-]
inactive: Potency [1] | Potency [2] | Potency [3] | activity change, negative = cytotoxic [4] -15.4% | activity change, negative = cytotoxicity [5] 3.6% | Potency [6] | activity change, negative = cytotoxicity [7] 3.67% | Potency [8] | Potency [9] | viability change, negative = cytotoxic ([10]; at 92.4 µM (top of the series)) 0.656% | activity change, negative = inhibition [11] -0.771% | Potency [12] | activity change, negative = cytotoxicity [19] -2.27% | Potency [13] | Potency [14] | activity change [15] -0.144% | Potency [16]

Nc1cc([N+](=O)[O-])cc([N+](=O)[O-])c1O
inactive: Potency [1] | Potency [2] | Potency [3] | activity change, negative = cytotoxic [4] -10.3% | activity change, negative = cytotoxicity [5] -0.171% | Potency [6] | activity change, negative = cytotoxicity [7] 0.254% | Potency [8] | activity change, negative = inhibition [11] -16.7% | activity change, negative = cytotoxicity [19] -18% | activity change [15] -1.93% | Potency [16]

Cc1ccc([N+](=O)[O-])c([N+](=O)[O-])c1
inactive: activity change, negative = cytotoxic [4] -1.96% and -6.84% | activity change, negative = cytotoxicity [5] -15.3% and -4.26% | activity change, negative = cytotoxicity [7] 1.81% and -4.01% | activity change, negative = inhibition [11] 42.6% | Potency [12] | activity change, negative = cytotoxicity [19] -3.85% and 1.47% | activity change [15] -9.17% and -16.4%
inactive and 27.5 µM (active): Potency [1]

Cc1cccc([N+](=O)[O-])c1[N+](=O)[O-]
inactive: Potency [1] | Potency [3] | activity change, negative = cytotoxic [4] 3.49% [at 35.3 µM] | activity change, negative = cytotoxicity [5] 5.83% [at 35.3 µM] | Potency [6] | activity change, negative = cytotoxicity [7] 7.57% [at 35.3 µM] | Potency [8] | Potency [9] | viability change, negative = cytotoxic ([10]; at 42.5 µM (top of the series)) -7.3% | activity change, negative = cytotoxicity [19] 9.82% [at 42.5 µM] | Potency [13] | activity change [15] 0.857% [at 42.5 µM]
active: Potency [2] 29.2 µM | Potency [20] 45.8 µM | Potency [12] 18.3 µM

From PubChem BioAssay (Tox21)
